“Also recorded” adds a separate entry of the source.
Columns and labels:
A549 cells [1] = assay: In vitro cell killing (ADCs, free drugs), FolRα-negative A549 cells; assay type: cell-based; conditions: for EC50 / Span: NK = No Killing
OVCAR3 cells [2] = assay: ADC cell killing in presence of excess un-conjugated naked antibody, OVCAR3 cells; assay type: cell-based, human; conditions: OVCAR3, + 0.5 uM un-conjugated antibody (1848-H01 for ADC Molecule 4, Mov19 for ADC Molecule 21)
[3] = Drug linkage stability: released free drug in human plasma; assay type: in vitro ADME; conditions: released free drug quantitated
Description: (§1) Free drug (II) then appears to undergo further metabolism over time.

[4] = Drug linkage stability: released free drug in cynomolgous monkey plasma; assay type: in vitro ADME, cynomolgus monkey; conditions: released free drug quantitated
Description: as §1

[5] = Pharmacokinetics of ADCs in non-tumor bearing SCID Beige mice; conditions: single 5 mg/kg IV bolus, 21 days
Igrov1 cells [6] = assay: In vitro cell killing (ADCs, free drugs), Igrov1 cells; assay type: cell-based
Igrov1 cells [7] = assay: ADC cell killing in presence of excess un-conjugated naked antibody, Igrov1 cells; assay type: cell-based
OVCAR3 cells [8] = assay: In vitro cell killing (ADCs), OVCAR3 cells; assay type: cell-based, human; conditions: OVCAR3 (FolRα positive), ADC alone; Table 25
A549 cells [9] = assay: ADC cell killing in presence of excess un-conjugated naked antibody, A549 cells; assay type: cell-based; conditions: A549, + 0.5 uM un-conjugated antibody (1848-H01 for ADC Molecule 4, Mov19 for ADC Molecule 21); NK = No Killing
[10] = A549 (FolRα negative), ADC alone, Table 25
[11] = Igrov1 (FolRα positive), ADC alone, Table 25
[12] = Igrov1, + 0.5 uM un-conjugated antibody (1848-H01 for ADC Molecule 4, Mov19 for ADC Molecule 21)

B1: ADC Molecule 21: IMGN853 (mirvetuximab soravtansine) surrogate expressed in CHO cells and conjugated to sulfo-SPDB-DM4 (conjugate, chains of the INN, looked up)
heavy: QVQLVQSGAEVVKPGASVKISCKASGYTFTGYFMNWVKQSPGQSLEWIGRIHPYDGDTFYNQKFQGKATLTVDKSSNTAHMELLSLTSEDFAVYYCTRYDGSRAMDYWGQGTTVTVSSASTKGPSVFPLAPSSKSTSGGTAALGCLVKDYFPEPVTVSWNSGALTSGVHTFPAVLQSSGLYSLSSVVTVPSSSLGTQTYICNVNHKPSNTKVDKKV[human IgG1 Fc left out here]
light: DIVLTQSPLSLAVSLGQPAIISCKASQSVSFAGTSLMHWYHQKPGQQPRLLIYRASNLEAGVPDRFSGSGSKTDFTLTISPVEAEDAATYYCQQSREYPYTFGGGTKLEIKRTVAAPSVFIFPPSDEQLKSGTASVVCLLNNFYPREAKVQWKVDNALQSGNSQESVTEQDSKDSTYSLSSTLTLSKADYEKHKVYACEVTHQGLSSPVTKSFNRGEC
modifications: sulfo-SPDB-DM4 payload
Question: For B1, which EC50 (A549 cells [1]; [10]) is on record?
Answer: The EC50 was 7.4 nM.

Question: And the Span (A549 cells [1]; [10])?
Answer: Its Span is 79%.

Question: What about the EC50 (A549 cells [1]; A549 cells, Table 26, * = estimated EC50 based on incomplete titration) of the same molecule?
Answer: The EC50 was ~9 nM.

Question: What about the Span (A549 cells [1]; A549 cells, Table 26) of the same molecule?
Answer: The Span was 71%.

Question: And the “cell killing on FolRα negative A549 cells” value (A549 cells [1]; in words)?
Answer: The value was “potent non-specific cell killing was observed; also recorded: cytotoxic activity on both negative- and positive-FolRα cell lines”.

Question: What about the EC50 (OVCAR3 cells [2]) of the same molecule?
Answer: The EC50 was 10 nM.

Question: What about the Span (OVCAR3 cells [2]) of the same molecule?
Answer: Its Span is 99%.

Question: What about the “drug linkage stability in human plasma” value [3] of the same molecule?
Answer: The value was “rapidly cleaved”.

Question: And the “drug linkage stability in cyno plasma” value [4]?
Answer: Its value is “rapidly cleaved”.

Question: What about the “AUC(0-all) ± SEM” value [5] of the same molecule?
Answer: The value was 447 ± 8 µg·days/mL.

Question: And the “AUC(0-∞)” value [5]?
Answer: The value was 510 µg·days/mL.

Question: And the C0 [5]?
Answer: The C0 was 115 µg/mL.

Question: What about the CL [5] of the same molecule?
Answer: Its CL is 9.8 mL/day/kg.

Question: What about the “Cmax ± SE” value [5] of the same molecule?
Answer: The value was 113 ± 4 µg/mL.

Question: And the T1/2 [5]?
Answer: The T1/2 was 182 h.

Question: And the VSS [5]?
Answer: The VSS was 0.0952 L/kg.

Question: And the EC50 (Igrov1 cells [6]; [11])?
Answer: The EC50 was 3.9 nM.

Question: What about the Span (Igrov1 cells [6]; [11]) of the same molecule?
Answer: The Span was 87%.

Question: What about the Span (Igrov1 cells [6]; Igrov1 cells, Table 26) of the same molecule?
Answer: Its Span is 85%.

Question: What about the EC50 (Igrov1 cells [6]; Igrov1 cells, Table 26, * = estimated EC50 based on incomplete titration) of the same molecule?
Answer: Its EC50 is ~4.4 nM.

Question: What about the “shift of EC50 by naked antibody on Igrov1 cells” value (Igrov1 cells [7]) of the same molecule?
Answer: Its value is “about 3 fold”.

Question: And the EC50 (Igrov1 cells [7]; [12])?
Answer: Its EC50 is ~11 nM.

Question: What about the Span (Igrov1 cells [7]; [12]) of the same molecule?
Answer: Its Span is 80%.

Question: And the EC50 (OVCAR3 cells [8])?
Answer: Its EC50 is 7.9 nM.

Question: And the Span (OVCAR3 cells [8])?
Answer: The Span was 100%.

Question: And the EC50 (A549 cells [9])?
Answer: The EC50 was 7 nM.

Question: And the Span (A549 cells [9])?
Answer: The Span was 81%.
